Source: PubChem (National Center for Advancing Translational Sciences (NCATS))
Sfp PPTase inh: blocks B. subtilis Sfp PPTase activity | Q9F4F7 | hit rate 3.5% among 310,000 | Potency, µM, without a hit: max response, negative = inhibition, most hits filed as inhibitors | AID 1490 | Biochemical Sfp PPTase activity, qHTS; active means well fitted inhibition curve with a large enough effect; inconclusive means small, poorly fitted or top-dose-only effect, or another doubt; inactive means no such curve, though single readings can be large or run the other way;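 further: the enzyme is Sfp with the accession as filed and its product quenches rhodamine fluorescence; potency means the concentration at half of the fitted maximal effect; 0% = enzyme reaction without inhibitor and -100% = no enzyme wells; top concentration of the series not given in the record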
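Fluorescence-quenching assay with 15 nM Sfp, 5 uM rhodamine-CoA and 12.5 uM BHQ-2-labelled ybbR peptide in pH 7.6 Hepes/MgCl2 buffer. Enzyme was pre-incubated with compound for 15 min at room temperature. Rate was taken from the 30-min fluorescence change (525/598 nm).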
KDM4E inh: blocks human JMJD2E demethylase activity. B2RXH2. AID 2147. JMJD2E catalytic domain, FDH-coupled NADH fluorescence (FDH is formaldehyde dehydrogenase). Potency, µM (doses to about 57.1 µM), inactives show top-dose activity change, negative = inhibition, most hits filed as inhibitors. 1.6% of 230,000 active; active = well fitted inhibition curve with a large enough effect, not every such curve was filed as active; inconclusive = small, poorly fitted or top-dose-only effect, or another doubt; inactive = no such curve, though single readings can be large or run the other way;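 note: potency is the fitted concentration of half-maximal effect; 0% = wells with enzyme and -100% = buffer wells without enzyme; nearly all actives have a fitted effect of over 50% in size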
ALDH1A1 block: blocks purified human ALDH1A1 activity | P00352 | Purified ALDH1A1, NADH fluorescence, propionaldehyde substrate | Potency, µM (highest dose often 75.3 µM), for inactives: top-dose activity, negative = inhibition, hits mostly inhibitors | 7.3% of 220,000 active | AID 1030; active = well fitted inhibition curve with a large enough effect, not every such curve was filed as active; inconclusive = small, poorly fitted or top-dose-only effect, or another doubt; inactive = no such curve, though single readings can be large or run the other way;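 note: potency is the fitted concentration of half-maximal effect; plate controls were no enzyme wells and a reference inhibitor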
Lamin A splicing: modulators of lamin A splicing; HeLa LMNA splicing GFP/RFP minigene ratio, 48 h; Potency, µM (highest dose often 46.1 µM), without a hit: at the highest dose ratio change, negative = inhibition, actives largely listed as inhibitors; 0.01% of 200,000 active; AID 1487; active = well fitted inhibition curve with a large enough effect in the signal ratio, with a control signal flat, not every such curve was filed as active; inconclusive = small, poorly fitted or top-dose-only effect, or effect the other way, or a change in a side signal; the % refers to the signal ratio; note: potency is the fitted concentration of half-maximal effect; % is set by controls: 0 for no effect and ±100 for the full control effect
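S3 HeLa stable clones carrying a lamin A-EGFP splicing minigene plus DsRed2 were seeded at 600 cells/well in Opti-MEM with 2% FBS, pin-dosed and incubated 48 h at 37°C. Acumen cytometry (488 nm) gave the GFP/RFP total-intensity ratio.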
miR-21 reporter: miR-21 reporter, rising signal; HeLa miR-21 FLuc reporter, luciferase, 48 h; Potency, µM (titrated, usually from 38.3 µM), without a hit: top-dose reporter change, positive = more light; AID 2288; 340,000 tested, under 10 active; active = well fitted rising curve with a large enough effect; inconclusive = small, poorly fitted or top-dose-only effect; inactive = no such curve, though single readings can be large or run the other way;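 further: % of control where 0% means no effect; miR-21 action dims this reporter so a rising signal means less miR-21 action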
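Using DMEM plus 10% FBS, HeLa miR-21-FLuc cells are incubated with test compounds (final up to about 40uM) for 48 hours; firefly luciferase signal is then imaged following reagent-mediated lysis.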
G9a inh: G9a (human) methyltransferase inhibition. G9a H3K9 monomethylation, AlphaScreen, 2 h. Potency, µM (series often up to 102 µM), without a hit: at the top dose activity, negative = inhibition, usual class: inhibitors. 8.8% of 350,000 active. AID 504332; note: potency is the fitted concentration of half-maximal effect; % is set by controls: 0 for no effect and ±100 for the full control effect; nearly all actives have a fitted effect of over 75% in size
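AlphaScreen detection with an anti-monomethyl H3K9 antibody quantified product after a 2 h room-temperature reaction containing 500 nM biotinylated H3K9 peptide, 20 µM SAM and 20 nM enzyme, which had been preincubated 15 min with compound.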
An asterisk follows results filed as active; ? = inconclusive; / = no result given; [ ] = remark or other dose. Most compounds without a hit are left out; they make up all but 13% or so of the library. Unless noted, calls come from the whole dose curve; as a rule, active = well fitted curve in the direction sought with a large enough effect; inconclusive = small, poorly fitted or top-dose-only effect, or another doubt; inactive = no such curve, though single readings can be large; an effect the other way counts as inactive or inconclusive.

cpd	Molecule	Sfp PPTase inh	KDM4E inh	ALDH1A1 block	Lamin A splicing	miR-21 reporter	G9a inh
1	CC(C)C[C@H](NC(=O)CNC(=O)[C@H](C)NC(=O)[C@H](CC(C)C)NC(=O)[C@H](CCCNC(=N)N)NC(=O)[C@H](Cc1cnc[nH]1)NC(=O)[C@@H](NC(=O)[C@@H](NC(=O)[C@@H]1CSSC[C@H](NC(=O)[C@@H](N)CO)C(=O)N[C@@H](CC(N)=O)C(=O)N[C@@H]([C@@H](C)O)C(=O)N[C@@H](C)C(=O)N[C@@H]([C@@H](C)O)C(=O)N1)C(C)C)[C@@H](C)O)C(=O)N[C@@H](CC(C)C)C(=O)N[C@@H](CO)C(=O)N[C@@H](CCCNC(=N)N)C(=O)N[C@@H](CO)C(=O)NCC(=O)NCC(=O)N[C@H](C(=O)N[C@H](C(=O)N[C@@H](CCCCN)C(=O)N[C@@H](CC(=O)O)C(=O)N[C@@H](CC(N)=O)C(=O)N[C@@H](Cc1ccccc1)C(=O)N[C@H](C(=O)N1CCC[C@H]1C(=O)N[C@H](C(=O)N[C@@H](CC(N)=O)C(=O)N[C@H](C(=O)NCC(=O)N[C@@H](CO)C(=O)N[C@@H](CCCCN)C(=O)N[C@@H](C)C(=O)N[C@@H](Cc1ccccc1)C(N)=O)C(C)C)[C@@H](C)O)C(C)C)C(C)C)C(C)C	3%	/	/	/	/	/
2	Cc1c2c(nc3ccccc13)CCC(C(C)(C)C)C2 (stereo not drawn)	-19%	-1%	-12%	/	-41%	50µM*
3	CC(C)(C)C1CCc2[nH]c3ccccc3c(=O)c2C1 (stereo not drawn)	21%	-12%	2%	?	-36%	-3%
4	C/C(=N\Nc1nc2ccccc2[nH]1)c1ccccn1	18%	/	/	/	-12%	6%
5	C/C(=N\Nc1nc2ccccc2[nH]1)c1cc2ccccc2o1	?	-2%	17%	-15%	-28%	45µM*
6	CN(CCCS(=O)(=O)[O-])c1ccc(/C=C/c2ccc3ccccc3[n+]2C)cc1	-9%	/	/	/	4%	32µM*
7	Cc1cc(/C=C/c2ccc3cc(N(C)C)ccc3[n+]2C)c(C)n1-c1ccccc1	-27%	?	-9%	/	/	/
8	CC(=O)Oc1ccccc1/C=C/c1ccc2ccccc2[n+]1C	-19%	/	/	/	-34%	/
9	COc1ccc(/C=C/c2ccc3ccccc3[n+]2C)cc1OC	-23%	/	/	/	-26%	35µM*
10	CN(C)c1ccc(/C=C/c2ccc3ccccc3[n+]2C)cc1	-22%	-21%	-15%	?	?	7.9µM*
11	C[n+]1ccccc1/C=C/c1ccc2ncccc2c1	3%	/	/	/	-17%	/
12	CN(C)c1ccc(/C=C/c2ccc3c4ccccc4ccc3[n+]2-c2ccccc2)cc1	14µM*	?	13µM*	?	?	16µM*
13	O=C(NCC(c1ccco1)N1CCCC1)c1cc(S(=O)(=O)N2CCOCC2)ccc1Cl (stereo not drawn)	/	/	/	/	/	7%[59 µM]
14	CC(C)c1csc(CN2CCN(Cc3ccc(F)cc3)C(CCO)C2)n1 (stereo not drawn)	-17%	-20%	-9%	/	0%	/
15	COc1ccccc1/C=C/C=N/NC(=O)c1cc(-c2ccco2)[nH]n1	13µM*	?	?	/	2%	/
16	CCOC(=O)C1=C(C)NC(=O)CC1c1ccccc1 (stereo not drawn)	-3%	3%	-9%	-6%	-5%	4%[59 µM]
17	CCOC(=O)C1=C(C)Nc2ncnn2C1c1ccc(N(C)C)cc1 (stereo not drawn)	5%	-1%	18µM*	4%	-12%	?
18	CCOC(=O)C1=C(C)Nc2nc(SCC)nn2C1c1ccc(OC)cc1 (stereo not drawn)	-4%	-21%	?	-7%	-2%	25%[12.7 µM]
19	CCOC(=O)C1=C(C)Nc2nc(=S)[nH]n2C1c1ccc(Cl)cc1 (stereo not drawn)	7.9µM*	1%	?	3%	-7%	1.3µM*

3 entries already listed, arranged by the value under ALDH1A1 block, highest first.
| No. | smiles | Sfp PPTase inh | KDM4E inh | ALDH1A1 block | miR-21 reporter | G9a inh |
| --- | --- | --- | --- | --- | --- | --- |
| 3 | CC(C)(C)C1CCc2[nH]c3ccccc3c(=O)c2C1 (stereo not drawn) | 21% | -12% | 2% | -36% | -3% |
| 16 | CCOC(=O)C1=C(C)NC(=O)CC1c1ccccc1 (stereo not drawn) | -3% | 3% | -9% | -5% | 4%[59 µM] |
| 2 | Cc1c2c(nc3ccccc13)CCC(C(C)(C)C)C2 (stereo not drawn) | -19% | -1% | -12% | -41% | 50µM* |
